# Test results as given in PubChem BioAssay AID624304 (Sanford-Burnham Center for Chemical Genomics, 2012).
# Only a part is listed here, and it is no random draw. The source made the active and inactive calls.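 The calls were made as follows: active = interference check ratio from 0.5 to 1.5 plus GFP to RFP signal ratio inhibition reaching or exceeding a fixed threshold (cut at about 30% in these data, passing the limit was not always enough); inactive = the rest.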
# Experiment: gst-4 reporter inhibition in live C. elegans – whole organism, uHTS, GFP/RFP fluorescence ratio, strain VP596, SKN-1 inhibitor project, primary screen (AID 624304)
# Conditions: C. elegans VP596 Pgst-4::GFP/RFP ratio, acrylamide-induced, 24 h; at 21.8 µM; active compounds read high
row,SMILES,inhibition
1,Cc1c(C(c2ccc3c(c2)OCO3)c2c(C)n(C)n(-c3ccccc3)c2=O)c(=O)n(-c2ccccc2)n1C.O=[N+]([O-])c1cc([N+](=O)[O-])c(O)c([N+](=O)[O-])c1,inactive: -15.2%
2,O=[N+]([O-])c1ccc(OP2(=O)COCCO2)cc1 (stereo not given),inactive: 3.17%
3,O=[N+]([O-])c1cc([N+](=O)[O-])c(NCC2CCS(=O)(=O)C2)c([N+](=O)[O-])c1 (stereo not given),inactive: 6.27%
4,Cc1cc(-c2cccc3ccccc23)c(C)cn1.O=[N+]([O-])c1cc([N+](=O)[O-])c(O)c([N+](=O)[O-])c1,inactive: 1.6%
5,CCOC(=O)C(CC)C1=NC(C)(C)Cc2ccccc21.O=[N+]([O-])c1cc([N+](=O)[O-])c(O)c([N+](=O)[O-])c1 (stereo not given),inactive: -9.2%
6,CC1=C2N=C(C=C3N=C(C(C)=C4[N-][C@@](C)([C@@H]5N=C1[C@](C)(CCC(=O)NC[C@@H](C)OP(=O)([O-])O[C@H]1[C@@H](O)[C@@H](n6cnc7cc(C)c(C)cc76)O[C@@H]1CO)[C@H]5CC(N)=O)[C@@](C)(CC(N)=O)[C@@H]4CCC(N)=O)[C@@](C)(CC(N)=O)[C@@H]3CCC(N)=O)C(C)(C)[C@@H]2CCC(N)=O.[C-]#N.[Co+3],inactive: 3.75%
7,O=[N+]([O-])c1cc([N+](=O)[O-])c(Nc2nnnn2CCO)c([N+](=O)[O-])c1,inactive: 16.7%
8,COc1ccc(-c2ccccn2)cc1.O=[N+]([O-])c1cc([N+](=O)[O-])c(O)c([N+](=O)[O-])c1,inactive: 1.99%
9,CCCOc1ccc(NP(C)(=O)Oc2ccc(Cl)cc2)cc1 (stereo not given),inactive: 10.1%
10,CP(=O)(Nc1ccc(SC(F)(F)F)cc1)Oc1ccccc1 (stereo not given),inactive: 21.2%
11,CN1CCCCC1COC(=O)C1(O)c2ccccc2CCc2ccccc21 (stereo not given),inactive: -3.57%
12,COc1ccccc1OP(C)(=O)Nc1c(C)cccc1C (stereo not given),inactive: 6.36%
13,CN(Cc1cccnc1)C(=O)COc1ccc(Cl)c(Cl)c1.O=[N+]([O-])c1cc([N+](=O)[O-])c(O)c([N+](=O)[O-])c1,inactive: -3.07%
14,O=[N+]([O-])c1cc([N+](=O)[O-])c(-n2nnc3ccccc32)c([N+](=O)[O-])c1,inactive: -6.1%
15,Cc1nc2ccc3ccccc3c2s1.O=[N+]([O-])c1cc([N+](=O)[O-])c(O)c([N+](=O)[O-])c1,inactive: 9.38%
16,O=[N+]([O-])c1cc([N+](=O)[O-])c(-c2cnn(-c3ccccc3)c2)c([N+](=O)[O-])c1,inactive: 9.99%
17,CCOC(=O)c1ccc(NP(C)(=O)Oc2cc(C)cc(C)c2)cc1 (stereo not given),inactive: 15.6%
18,Cc1cc(C)cc(OP(C)(=O)Nc2ccc(C)cc2C)c1 (stereo not given),inactive: 7.25%
19,COc1ccccc1OP(C)(=O)Nc1cccc(Br)c1 (stereo not given),inactive: 9.37%
20,Cc1ccc(C)c(NP(C)(=O)Oc2ccccc2)c1 (stereo not given),inactive: 24.2%
21,Cc1cc(C)cc(OP(C)(=O)Nc2ccccn2)c1 (stereo not given),inactive: 7.52%
22,CP(=O)(Nc1cccc(Br)c1)Oc1ccccc1 (stereo not given),inactive: -14.7%
23,O=C(O)c1cccc(Nc2c([N+](=O)[O-])cc([N+](=O)[O-])cc2[N+](=O)[O-])c1,inactive: 12%
24,CC1=NCCc2c1[nH]c1ccccc21.O=[N+]([O-])c1cc([N+](=O)[O-])c(O)c([N+](=O)[O-])c1,inactive: -15.3%
25,O=[N+]([O-])c1ccc2c(c1)C=Nc1ccccc1O2,inactive: 2.6%

row,SMILES,inhibition
1,Cc1cccc(C)c1OP(C)(N)=O (stereo not given),inactive: 3.13%
2,CC(C)(C)c1ccc(OP(C)(=O)Nc2ccc(SC(F)(F)F)cc2)cc1 (stereo not given),inactive: 3.93%
3,O=[N+]([O-])c1cc([N+](=O)[O-])c(Nc2cccnc2)c([N+](=O)[O-])c1,inactive: -1.87%
4,Cc1cc(C)cc(OP(C)(N)=O)c1 (stereo not given),inactive: 1.04%
5,COc1ccc(OP(C)(=O)Nc2cccc(F)c2)cc1 (stereo not given),inactive: 26.3%
6,COc1ccccc1OP(C)(=O)Nc1cc(Cl)ccc1C (stereo not given),inactive: 3.59%
7,Cc1ccc(NP(C)(=O)Oc2ccccc2)c(C)c1 (stereo not given),inactive: 21.6%
8,COc1ccccc1OP(C)(=O)Nc1ccc(C)cc1 (stereo not given),inactive: 19.9%
9,CCOC(=O)c1ccc(NP(C)(=O)Oc2ccccc2)cc1 (stereo not given),inactive: -2.9%
10,CCN(CC)CCCOC(=O)C(O)(c1ccccc1)c1ccccc1,inactive: -0.698%
11,COc1ccccc1-c1ccccn1.O=[N+]([O-])c1cc([N+](=O)[O-])c(O)c([N+](=O)[O-])c1,inactive: 4.47%
12,Cc1cc(C)cc(OP(C)(=O)Nc2ccc(SC(F)(F)F)cc2)c1 (stereo not given),inactive: -6.53%
13,CP(=O)(NC(=O)Nc1ccccc1)Oc1ccccc1 (stereo not given),inactive: -4.32%
14,CCc1ccc(OP(C)(=O)N2CCN(c3ccc([N+](=O)[O-])cc3)CC2)cc1 (stereo not given),inactive: 5.46%
15,CP(=O)(Oc1ccccc1)OC(c1ccccc1)C(F)(F)F (stereo not given),inactive: 4.3%
16,CP(=O)(Nc1ccc(SC(F)(F)F)cc1)Oc1ccc(Cl)cc1 (stereo not given),inactive: 32.1%
17,Cc1cccc(C)c1OP(C)(=O)Nc1ccc(SC(F)(F)F)cc1 (stereo not given),inactive: 3.79%
18,Cc1ccc(Nc2c([N+](=O)[O-])cc([N+](=O)[O-])cc2[N+](=O)[O-])cc1,inactive: 9.11%
19,CP(=O)(Nc1ccccn1)Oc1ccc(Cl)cc1 (stereo not given),inactive: 6.04%
20,O=[N+]([O-])c1cc([N+](=O)[O-])c(O)c([N+](=O)[O-])c1.c1ccc(Oc2ccncc2)cc1,inactive: -6.22%
21,CCOC(=O)c1ccc(NP(C)(=O)Oc2ccc(OC)cc2)cc1 (stereo not given),inactive: 8.18%
22,CCOP(C)(=S)SCC(=O)NC(C)C(=O)O (stereo not given),inactive: -16.3%
23,CP(=O)(Nc1ccccc1Br)Oc1ccccc1 (stereo not given),inactive: 12.6%
24,COc1ccccc1OP(C)(=O)Nc1ccccc1 (stereo not given),inactive: 1.35%
25,CP(=S)(Nn1cnnc1)Oc1ccccc1 (stereo not given),inactive: 7.56%
